pIC50: −log10 of the molar value. Structures can show the parent of a compound that is named as a salt. Where two headings read alike, the source gives them in different places. Bounds are passed on as bounds.

The source of these data is article PMC11345844, “Non-Covalent Inhibitors of SARS-CoV-2 Papain-Like Protease (PLpro): In Vitro and In Vivo Antiviral Activity” (Journal of Medicinal Chemistry, 2024).

For data set [1], the target named is T1, SARS-CoV-2 PLpro (Severe acute respiratory syndrome coronavirus 2, UniProt P0DTD1). The settings on record: read-out: Enzyme inhibition IC50.
Data set [2] concerns the target T1, SARS-CoV-2 PLpro. Nature of the data set: biochemical.
Another data set is described as follows: in vivo. The conditions noted are these: female, C57B/6, mouse; for concentration at […] / concentration at 0.5 h / concentration at 1 min: mean; for concentration at […]: 5 mg/kg i.v. bid for 0.5 days, […] after final injection (Table S1); for concentration at 0.5 h: 10 mg/kg (s.c. qd) for 1 days, 0.5 h (Table S5); for concentration at 1 min: 10 mg/kg i.v. qd for 2 days, 1 min after final injection (Table S3).

With `Cc1ccc(OC2CNC2)cc1C(=O)N[C@H](C)c1cccc(-c2ccc(CN[C@H]3CC[C@@H](C(=O)O)C3)s2)c1` [Compound 46, (1R,3S)-3-(((5-(3-((R)-1-(5-(Azetidin-3-yloxy)-2-methylbenzamido)ethyl)phenyl)thiophen-2-yl)methyl)amino)cyclopentane-1-carboxylic Acid], the values for the negative logarithm of the IC50 (pIC50) at SARS-CoV-2 PLpro [1] and against SARS-CoV-2 PLpro [2] were 6.44 and greater than 6.30, respectively.

As for `Cc1ccc(NC2CNC2)cc1C(=O)N[C@H](C)c1cccc(-c2ccc(CN)s2)c1` [Compound 21, (R)-N-(1-(3-(5-(Aminomethyl)thiophen-2-yl)phenyl)ethyl)-5-(azetidin-3-ylamino)-2-methylbenzamide], the pIC50 on SARS-CoV-2 PLpro [2] is 5.81.

For `Cc1ccc(NC2CNC2)cc1C(=O)N[C@H](C)c1cccc(-c2ccc(CNC3CCCC3)s2)c1` [10 (HCl salt)], in “in vivo” (5 mg/kg), the Kp at […] stood at 5.36. Also, the concentration at […] in the data set “in vivo” (5 mg/kg, Lung concentration) turned out to be 10200 ng/mL; in “in vivo” (5 mg/kg, Plasma concentration) it was 1910 ng/mL. This molecule also returned a Kp at 1 min in “in vivo” (10 mg/kg) of 3.26. For the same molecule, the concentration at 0.5 h came out at 90000 ng/mL in “in vivo” (10 mg/kg, Lung concentration) and 7030 ng/mL in “in vivo” (10 mg/kg, Plasma concentration). Moreover, the concentration at 1 min in the data set “in vivo” (10 mg/kg, Lung concentration) is 36000 ng/mL; in “in vivo” (10 mg/kg, Plasma concentration) it was 11100 ng/mL. Also, the Kp at 0.5 h in the data set “in vivo” (sc, 100 mg/kg) worked out at 12.9.

For the molecule `Cc1ccc(NC2CNC2)cc1C(=O)N[C@H](C)c1cccc(-c2cc(C)c(CNC3CCCC3)s2)c1` [Compound 16, (R)-5-(Azetidin-3-ylamino)-N-(1-(3-(5-((cyclopentylamino)methyl)-4-methylthiophen-2-yl)phenyl)ethyl)-2 Methylbenzamide], the pIC50 was 6.19 on SARS-CoV-2 PLpro [1] and roughly 6.15 at SARS-CoV-2 PLpro [2].

Regarding `Cc1ccc(OC2CCNCC2)cc1C(=O)N[C@H](C)c1cccc(-c2ccc(CNC3CCCC3)s2)c1` [Compound 44, (R)-N-(1-(3-(5-((Cyclopentylamino)methyl)thiophen-2-yl)phenyl)ethyl)-2-methyl-5-(piperidin-4-yloxy)benzamide], the negative-log IC50 (pIC50) at SARS-CoV-2 PLpro [1] is 6.12; on SARS-CoV-2 PLpro [2], roughly 6.15.

Regarding `Cc1ccc(NC2CNC2)cc1C(=O)N[C@H](C)c1cccc(-c2ccc(CN[C@H]3CC[C@@H](OC(=O)[C@@H](NC(=O)[C@@H](N)C(C)C)C(C)C)C3)s2)c1` [Compound 61, (1R,3S)-3-(((5-(3-((R)-1-(5-(Azetidin-3-ylamino)-2-methylbenzamido)ethyl)phenyl)thiophen-2-yl)methyl)amino)cyclopentyl L-valyl-L-valinate], the negative-log IC50 (pIC50) was 6.30 on SARS-CoV-2 PLpro [1] and greater than 6.22 on SARS-CoV-2 PLpro [2].

On to `Cc1ccc(NC2CNC2)cc1C(=O)N[C@H](C)c1cccc(-c2ccc(CNC3CCCC3)s2)c1` [Compound 10], for which the “plasma AUCinf” value is 305 ± 46 ng·h/mL (i.v. mouse, 2 mg/kg) and 15,067 ± 1298 h × ng/mL (s.c. mouse, 50 mg/kg).

With `Cc1ccc(NC2CNC2)cc1C(=O)N[C@H](C)c1cccc(-c2ccc(CN[C@H]3CC[C@@H](C(=O)O)C3)s2)c1` [Compound 39, (1R,3S)-3-(((5-(3-((R)-1-(5-(Azetidin-3-ylamino)-2-methylbenzamido)ethyl)phenyl)thiophen-2-yl)methyl)amino)cyclopentane-1-carboxylic Acid], the negative logarithm of the IC50 (pIC50) at SARS-CoV-2 PLpro [1] is 6.49; against SARS-CoV-2 PLpro [2] it was greater than 6.30.

Take `Cc1ccc(NC2CNC2)cc1C(=O)N[C@H](C)c1cccc(-c2ccc(C#N)s2)c1` [Compound 23, (R)-5-(Azetidin-3-ylamino)-N-(1-(3-(5-cyanothiophen-2-yl)phenyl)ethyl)-2-methylbenzamide]: the pIC50 at SARS-CoV-2 PLpro [1] is 5.26; on SARS-CoV-2 PLpro [2], 5.22 to 5.40.

On to `CC(=O)Nc1ccc(C)c(C(=O)N[C@H](C)c2cccc(-c3ccc(CN4CCCC4)s3)c2)c1` [Compound 51, (R)-5-Acetamido-2-methyl-N-(1-(3-(5-(pyrrolidin-1-ylmethyl)thiophen-2-yl)phenyl)ethyl)benzamide], for which the pIC50 on SARS-CoV-2 PLpro [1] is 5.62.

As to `Cc1ccc(NC2CNC2)cc1C(=O)N[C@H](C)c1cccc(-c2ccc(CNC(=O)C3CCOCC3)s2)c1` [Compound 33, (R)-N-((5-(3-(1-(5-(Azetidin-3-ylamino)-2-methylbenzamido)ethyl)phenyl)thiophen-2-yl)methyl)tetrahydro-2H-pyran-4-carboxamide], the negative-log IC50 (pIC50) on SARS-CoV-2 PLpro [1] was 6.09.

Regarding `Cc1ccc(NC2CNC2)cc1C(=O)N[C@H](C)c1cccc(-c2sc(CNC3CCCC3)cc2C)c1` [Compound 19, (R)-5-(Azetidin-3-ylamino)-N-(1-(3-(5-((cyclopentylamino)methyl)-3-methylthiophen-2-yl)phenyl)ethyl)-2-methylbenzamide], on SARS-CoV-2 PLpro [1], the negative-log IC50 (pIC50) was 5.71.

With `Cc1ccc(NC2CNC2)cc1C(=O)N[C@H](C)c1cccc(-c2cc(C)c(CN[C@H]3CC[C@@H](O)C3)s2)c1` [Compound 17, 5-(Azetidin-3-ylamino)-N-((R)-1-(3-(5-((((1S,3R)-3-hydroxycyclopentyl)amino)methyl)-4-methylthiophen-2-yl)phenyl)ethyl)-2-methylbenzamide], the negative-log IC50 (pIC50) on SARS-CoV-2 PLpro [1] was 6.48.

With `Cc1ccc(NC2CNC2)cc1C(=O)N[C@H](C)c1cccc(-c2ccc(CN[C@H]3CC[C@@H](OC(=O)[C@@H](N)C(C)C)C3)s2)c1` [Compound 60, (1R,3S)-3-(((5-(3-((R)-1-(5-(Azetidin-3-ylamino)-2-methylbenzamido)ethyl)phenyl)thiophen-2-yl)methyl)amino)cyclopentyl L-valinate], the pIC50 at SARS-CoV-2 PLpro [1] was 6.25; against SARS-CoV-2 PLpro [2], greater than 6.22.

The term pIC50 denotes the negative decadic logarithm of the IC50, by convention in mol/L.
